{
  "sequences": {"note": "Protein sequences, listed by entry. Tags and fused reporters are not part of them. Residues count along the entry.", "UniProt P22455, 22-802 limits assumed": "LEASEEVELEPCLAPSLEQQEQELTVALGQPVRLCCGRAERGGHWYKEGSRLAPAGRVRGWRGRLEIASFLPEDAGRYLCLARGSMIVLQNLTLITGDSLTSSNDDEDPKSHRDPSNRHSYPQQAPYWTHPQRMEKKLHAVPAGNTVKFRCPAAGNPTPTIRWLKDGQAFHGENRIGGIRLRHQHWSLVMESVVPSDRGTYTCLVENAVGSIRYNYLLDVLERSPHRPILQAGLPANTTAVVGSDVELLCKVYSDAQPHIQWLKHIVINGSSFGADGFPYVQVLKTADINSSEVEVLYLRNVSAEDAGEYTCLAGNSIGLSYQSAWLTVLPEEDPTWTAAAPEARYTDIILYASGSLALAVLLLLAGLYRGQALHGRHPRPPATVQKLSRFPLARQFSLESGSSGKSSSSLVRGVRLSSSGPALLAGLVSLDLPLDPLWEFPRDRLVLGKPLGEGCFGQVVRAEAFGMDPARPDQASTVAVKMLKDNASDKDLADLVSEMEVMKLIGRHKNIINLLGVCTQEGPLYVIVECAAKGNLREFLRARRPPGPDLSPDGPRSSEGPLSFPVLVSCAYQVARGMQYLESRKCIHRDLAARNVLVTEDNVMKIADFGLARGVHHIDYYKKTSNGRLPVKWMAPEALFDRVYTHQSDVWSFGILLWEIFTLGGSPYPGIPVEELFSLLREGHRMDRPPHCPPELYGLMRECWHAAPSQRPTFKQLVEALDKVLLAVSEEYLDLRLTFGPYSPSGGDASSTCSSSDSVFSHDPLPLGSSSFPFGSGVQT", "UniProt P10721, 26-976 limits assumed": "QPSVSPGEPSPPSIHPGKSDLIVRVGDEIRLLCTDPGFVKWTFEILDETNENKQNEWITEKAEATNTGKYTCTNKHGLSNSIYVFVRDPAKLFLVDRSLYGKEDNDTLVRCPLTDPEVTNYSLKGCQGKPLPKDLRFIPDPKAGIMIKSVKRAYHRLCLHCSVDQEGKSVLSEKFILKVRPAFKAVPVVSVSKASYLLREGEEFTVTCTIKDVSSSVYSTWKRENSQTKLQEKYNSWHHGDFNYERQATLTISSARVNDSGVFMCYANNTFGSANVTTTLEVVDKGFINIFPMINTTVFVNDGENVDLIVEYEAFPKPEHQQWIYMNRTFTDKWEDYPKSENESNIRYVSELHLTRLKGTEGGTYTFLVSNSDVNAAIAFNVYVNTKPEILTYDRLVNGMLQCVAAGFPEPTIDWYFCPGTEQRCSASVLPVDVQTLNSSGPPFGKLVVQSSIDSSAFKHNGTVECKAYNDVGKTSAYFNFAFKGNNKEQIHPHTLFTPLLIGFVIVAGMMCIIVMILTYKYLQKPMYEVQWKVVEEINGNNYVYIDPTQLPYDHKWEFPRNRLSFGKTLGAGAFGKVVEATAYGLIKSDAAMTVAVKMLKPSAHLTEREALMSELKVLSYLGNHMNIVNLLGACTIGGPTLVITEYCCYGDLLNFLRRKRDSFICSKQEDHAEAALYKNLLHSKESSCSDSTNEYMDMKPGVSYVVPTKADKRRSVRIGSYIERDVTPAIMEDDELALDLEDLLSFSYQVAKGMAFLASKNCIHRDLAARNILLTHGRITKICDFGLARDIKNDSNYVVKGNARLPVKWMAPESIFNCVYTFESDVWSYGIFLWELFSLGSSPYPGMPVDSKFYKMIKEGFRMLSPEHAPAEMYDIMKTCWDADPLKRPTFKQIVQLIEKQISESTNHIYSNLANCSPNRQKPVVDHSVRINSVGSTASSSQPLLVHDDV", "UniProt P49137, whole entry": "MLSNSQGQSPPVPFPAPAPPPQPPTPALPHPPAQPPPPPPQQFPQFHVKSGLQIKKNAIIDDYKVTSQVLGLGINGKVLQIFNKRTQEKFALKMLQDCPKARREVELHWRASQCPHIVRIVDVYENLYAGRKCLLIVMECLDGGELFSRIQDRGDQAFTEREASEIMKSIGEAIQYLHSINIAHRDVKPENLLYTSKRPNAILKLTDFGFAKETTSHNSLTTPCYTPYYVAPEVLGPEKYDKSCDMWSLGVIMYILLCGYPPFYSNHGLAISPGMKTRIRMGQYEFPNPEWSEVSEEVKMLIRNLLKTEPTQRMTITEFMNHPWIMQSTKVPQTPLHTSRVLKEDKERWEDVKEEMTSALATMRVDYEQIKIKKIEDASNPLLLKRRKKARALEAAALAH", "UniProt P28482, whole entry": "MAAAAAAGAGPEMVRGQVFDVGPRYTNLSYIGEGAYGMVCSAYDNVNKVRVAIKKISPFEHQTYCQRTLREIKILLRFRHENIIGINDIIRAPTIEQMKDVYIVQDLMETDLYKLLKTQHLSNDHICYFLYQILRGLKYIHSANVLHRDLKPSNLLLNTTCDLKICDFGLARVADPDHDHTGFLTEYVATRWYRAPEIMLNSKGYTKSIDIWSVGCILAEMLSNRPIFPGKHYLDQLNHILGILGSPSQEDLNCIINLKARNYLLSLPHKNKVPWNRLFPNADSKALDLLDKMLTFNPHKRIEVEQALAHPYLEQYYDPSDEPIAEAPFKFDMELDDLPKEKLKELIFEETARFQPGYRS", "UniProt P35968, 20-1356 limits assumed": "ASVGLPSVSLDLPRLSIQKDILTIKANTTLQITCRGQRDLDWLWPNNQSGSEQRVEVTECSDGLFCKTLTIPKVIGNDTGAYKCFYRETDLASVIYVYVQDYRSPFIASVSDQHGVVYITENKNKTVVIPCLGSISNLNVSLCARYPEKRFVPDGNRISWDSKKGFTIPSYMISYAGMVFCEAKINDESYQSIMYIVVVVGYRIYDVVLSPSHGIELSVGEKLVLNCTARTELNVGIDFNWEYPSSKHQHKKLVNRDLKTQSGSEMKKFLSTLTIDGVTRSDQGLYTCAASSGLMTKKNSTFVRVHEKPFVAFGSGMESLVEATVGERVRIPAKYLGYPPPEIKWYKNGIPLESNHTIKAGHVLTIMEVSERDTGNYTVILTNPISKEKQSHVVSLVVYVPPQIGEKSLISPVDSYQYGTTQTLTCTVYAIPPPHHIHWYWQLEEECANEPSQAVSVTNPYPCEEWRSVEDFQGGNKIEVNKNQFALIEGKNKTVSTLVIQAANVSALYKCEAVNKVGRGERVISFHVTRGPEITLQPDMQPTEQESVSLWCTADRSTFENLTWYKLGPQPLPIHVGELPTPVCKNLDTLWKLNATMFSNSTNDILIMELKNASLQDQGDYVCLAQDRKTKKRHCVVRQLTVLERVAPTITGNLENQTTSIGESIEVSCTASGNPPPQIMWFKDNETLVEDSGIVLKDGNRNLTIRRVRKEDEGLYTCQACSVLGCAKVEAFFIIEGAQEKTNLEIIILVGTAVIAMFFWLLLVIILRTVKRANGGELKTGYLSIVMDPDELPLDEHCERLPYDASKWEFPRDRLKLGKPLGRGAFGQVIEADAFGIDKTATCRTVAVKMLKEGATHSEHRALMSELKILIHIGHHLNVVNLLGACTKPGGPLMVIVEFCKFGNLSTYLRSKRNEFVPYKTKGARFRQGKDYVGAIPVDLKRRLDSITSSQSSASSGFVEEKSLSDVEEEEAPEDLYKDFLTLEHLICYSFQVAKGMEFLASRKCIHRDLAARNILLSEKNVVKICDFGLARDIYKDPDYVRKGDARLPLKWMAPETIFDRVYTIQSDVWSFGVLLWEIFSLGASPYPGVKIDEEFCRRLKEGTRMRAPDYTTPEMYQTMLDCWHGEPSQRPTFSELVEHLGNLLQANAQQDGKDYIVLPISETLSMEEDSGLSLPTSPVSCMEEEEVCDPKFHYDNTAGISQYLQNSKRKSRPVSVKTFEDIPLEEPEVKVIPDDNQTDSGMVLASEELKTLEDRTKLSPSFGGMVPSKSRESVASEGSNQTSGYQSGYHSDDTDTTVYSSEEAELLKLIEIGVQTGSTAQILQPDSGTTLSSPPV", "UniProt P00519, whole entry T315I": "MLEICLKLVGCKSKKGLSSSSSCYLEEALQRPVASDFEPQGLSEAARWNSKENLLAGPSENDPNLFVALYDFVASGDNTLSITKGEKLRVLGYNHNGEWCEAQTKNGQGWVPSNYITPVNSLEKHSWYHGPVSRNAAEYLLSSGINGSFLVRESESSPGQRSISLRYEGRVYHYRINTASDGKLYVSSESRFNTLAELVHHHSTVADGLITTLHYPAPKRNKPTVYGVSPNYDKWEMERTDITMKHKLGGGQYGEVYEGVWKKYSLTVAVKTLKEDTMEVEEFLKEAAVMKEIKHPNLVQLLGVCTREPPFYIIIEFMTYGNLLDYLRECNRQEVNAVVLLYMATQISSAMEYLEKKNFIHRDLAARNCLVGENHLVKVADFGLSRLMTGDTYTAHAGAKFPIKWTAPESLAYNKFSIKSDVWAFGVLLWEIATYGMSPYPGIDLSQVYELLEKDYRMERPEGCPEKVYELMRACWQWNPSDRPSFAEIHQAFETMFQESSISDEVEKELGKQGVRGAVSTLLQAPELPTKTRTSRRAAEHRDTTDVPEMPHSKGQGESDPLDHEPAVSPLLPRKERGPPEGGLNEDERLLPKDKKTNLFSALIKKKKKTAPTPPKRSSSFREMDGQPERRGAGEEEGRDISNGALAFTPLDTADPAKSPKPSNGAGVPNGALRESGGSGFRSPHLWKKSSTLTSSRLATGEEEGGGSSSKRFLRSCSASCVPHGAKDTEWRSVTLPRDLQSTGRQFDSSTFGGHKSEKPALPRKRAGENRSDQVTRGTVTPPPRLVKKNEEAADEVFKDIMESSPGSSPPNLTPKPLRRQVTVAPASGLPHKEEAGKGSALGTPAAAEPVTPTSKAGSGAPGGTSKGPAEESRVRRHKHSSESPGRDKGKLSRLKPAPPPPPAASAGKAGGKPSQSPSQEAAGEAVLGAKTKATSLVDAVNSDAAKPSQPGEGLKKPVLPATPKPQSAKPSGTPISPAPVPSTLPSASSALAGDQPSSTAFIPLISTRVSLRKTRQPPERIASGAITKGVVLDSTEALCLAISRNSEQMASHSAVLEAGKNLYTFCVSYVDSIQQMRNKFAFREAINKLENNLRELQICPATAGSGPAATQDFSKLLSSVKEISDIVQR", "UniProt P06213, 28-1382 limits assumed": "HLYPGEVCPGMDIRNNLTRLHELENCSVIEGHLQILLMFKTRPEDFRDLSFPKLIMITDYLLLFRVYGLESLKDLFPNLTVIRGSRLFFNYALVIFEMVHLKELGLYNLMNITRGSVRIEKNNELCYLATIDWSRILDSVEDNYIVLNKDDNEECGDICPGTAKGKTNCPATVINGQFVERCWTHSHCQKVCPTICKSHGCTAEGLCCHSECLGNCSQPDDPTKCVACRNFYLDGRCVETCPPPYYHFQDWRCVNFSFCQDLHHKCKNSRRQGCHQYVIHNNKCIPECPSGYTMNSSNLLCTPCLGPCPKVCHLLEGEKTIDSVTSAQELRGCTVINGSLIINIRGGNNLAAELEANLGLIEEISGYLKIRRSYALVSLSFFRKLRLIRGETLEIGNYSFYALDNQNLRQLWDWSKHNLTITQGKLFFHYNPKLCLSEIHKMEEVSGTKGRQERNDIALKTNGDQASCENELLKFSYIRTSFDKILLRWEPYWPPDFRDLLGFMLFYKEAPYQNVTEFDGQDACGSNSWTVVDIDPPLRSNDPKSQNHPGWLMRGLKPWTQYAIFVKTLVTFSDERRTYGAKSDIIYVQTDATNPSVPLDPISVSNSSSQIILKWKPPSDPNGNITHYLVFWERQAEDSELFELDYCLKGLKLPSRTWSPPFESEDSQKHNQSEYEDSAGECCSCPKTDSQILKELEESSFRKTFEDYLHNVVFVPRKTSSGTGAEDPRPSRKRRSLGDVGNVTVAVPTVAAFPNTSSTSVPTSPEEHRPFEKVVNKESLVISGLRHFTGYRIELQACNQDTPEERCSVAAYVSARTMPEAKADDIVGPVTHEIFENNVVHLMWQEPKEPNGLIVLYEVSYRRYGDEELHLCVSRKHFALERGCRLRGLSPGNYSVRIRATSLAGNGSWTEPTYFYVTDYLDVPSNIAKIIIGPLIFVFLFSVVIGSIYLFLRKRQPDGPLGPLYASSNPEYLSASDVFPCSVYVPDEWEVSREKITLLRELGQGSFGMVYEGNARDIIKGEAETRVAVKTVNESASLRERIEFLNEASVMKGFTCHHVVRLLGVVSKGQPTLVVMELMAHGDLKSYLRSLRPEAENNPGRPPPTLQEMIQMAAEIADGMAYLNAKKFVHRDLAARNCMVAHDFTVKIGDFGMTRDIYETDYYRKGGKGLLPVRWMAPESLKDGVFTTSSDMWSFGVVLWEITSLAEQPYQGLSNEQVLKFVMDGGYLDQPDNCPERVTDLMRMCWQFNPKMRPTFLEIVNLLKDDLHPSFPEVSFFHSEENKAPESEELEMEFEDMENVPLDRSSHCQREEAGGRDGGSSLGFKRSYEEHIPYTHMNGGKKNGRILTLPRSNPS"},
  "source": "patent US20130338152A1",
  "about": "“FLUOROPHENYL BICYCLIC HETEROARYL COMPOUNDS” (IRM LLC, priority 2011, published 2013)",
  "key": {"[1]": {"target": "RET (Homo sapiens, UniProt P07949)", "experiment": "Enzymatic kinase assay", "assay_type": "biochemical", "details": "read-out: RET IC50 values"}, "[2]": {"target": "FGFR-4 (Homo sapiens, UniProt P22455)", "experiment": "Enzymatic kinase assay", "assay_type": "biochemical", "details": "read-out: FGFR-4 IC50 values"}, "[3]": {"target": "cMET (Homo sapiens, UniProt P08581)", "experiment": "Enzymatic kinase assay", "assay_type": "biochemical", "details": "read-out: cMET IC50 values"}, "[4]": {"target": "Aurora A (Homo sapiens, UniProt O14965)", "experiment": "Enzymatic kinase assay", "assay_type": "biochemical", "details": "read-out: Aurora A IC50 values"}, "[5]": {"target": "CDK2A (Homo sapiens, UniProt P24941)", "experiment": "Enzymatic kinase assay", "assay_type": "biochemical", "details": "read-out: CDK2A IC50 values"}, "[6]": {"target": "P38a (Homo sapiens, UniProt Q16539)", "experiment": "Enzymatic kinase assay", "assay_type": "biochemical", "details": "read-out: P38a IC50 values"}, "[7]": {"target": "LCK (Homo sapiens, UniProt P06239)", "experiment": "Enzymatic kinase assay", "assay_type": "biochemical", "details": "read-out: LCK IC50 values"}, "[8]": {"target": "cKIT (Homo sapiens, UniProt P10721)", "experiment": "Enzymatic kinase assay", "assay_type": "biochemical", "details": "read-out: cKIT IC50 values"}, "[9]": {"target": "GSK3beta (Homo sapiens, UniProt P49841)", "experiment": "Enzymatic kinase assay", "assay_type": "biochemical", "details": "read-out: GSK3beta IC50 values"}, "[10]": {"target": "JAK2 (Homo sapiens, UniProt O60674)", "experiment": "Enzymatic kinase assay", "assay_type": "biochemical", "details": "read-out: JAK2 IC50 values"}, "[11]": {"target": "MK2 (Homo sapiens, UniProt P49137)", "experiment": "Enzymatic kinase assay", "assay_type": "biochemical", "details": "read-out: MK2 IC50 values"}, "[12]": {"target": "ERK2 (Homo sapiens, UniProt P28482)", "experiment": "Enzymatic kinase assay", "assay_type": "biochemical", "details": "read-out: ERK2 IC50 values"}, "[13]": {"target": "COT1 (Homo sapiens, UniProt P41279)", "experiment": "Enzymatic kinase assay", "assay_type": "biochemical", "details": "read-out: COT1 IC50 values"}, "[14]": {"target": "PKA (Homo sapiens, UniProt P17612)", "experiment": "Enzymatic kinase assay", "assay_type": "biochemical", "details": "read-out: PKA IC50 values"}, "[15]": {"target": "HER2 (Homo sapiens, UniProt P04626)", "experiment": "Enzymatic kinase assay", "assay_type": "biochemical", "details": "read-out: HER2 IC50 values"}, "[16]": {"target": "EphA4 (Homo sapiens, UniProt P54764)", "experiment": "Enzymatic kinase assay", "assay_type": "biochemical", "details": "read-out: EphA4 IC50 values"}, "[17]": {"target": "KDR (Homo sapiens, UniProt P35968)", "experiment": "Enzymatic kinase assay", "assay_type": "biochemical", "details": "read-out: KDR IC50 values"}, "[18]": {"target": "PDGFRa (Homo sapiens, UniProt P16234)", "experiment": "Enzymatic kinase assay", "assay_type": "biochemical", "details": "read-out: PDGFRa IC50 values"}, "[19]": {"target": "cABLT315 (Homo sapiens, UniProt P00519, T315I)", "experiment": "Enzymatic kinase assay", "assay_type": "biochemical", "details": "read-out: cABLT315 IC50 values"}, "[20]": {"target": "TYK2 (Homo sapiens, UniProt P29597)", "experiment": "Enzymatic kinase assay", "assay_type": "biochemical", "details": "read-out: TYK2 IC50 values"}, "[21]": {"target": "hERG channels (Homo sapiens, UniProt Q12809)"}, "[22]": {"target": "IGF1R (Homo sapiens, UniProt P08069)", "experiment": "Enzymatic kinase assay (filter-binding/flashplate)", "assay_type": "biochemical", "details": "read-out: IGF1R IC50 values"}, "[23]": {"target": "InsR (Homo sapiens, UniProt P06213)", "experiment": "Enzymatic kinase assay (filter-binding/flashplate)", "assay_type": "biochemical", "details": "read-out: InsR IC50 values"}},
  "data": [
    {"smiles": "COc1cc(Nc2cc(C)n[nH]2)nc(N2CCC[C@H]2c2cc(-c3ncccn3)no2)n1", "values": [
      {"measurement": "IC50", "setting": "[1]", "result": 1.1, "unit": "µM"},
      {"measurement": "IC50", "setting": "[2]", "result": "> 10", "unit": "µM"},
      {"measurement": "IC50", "setting": "[3]", "result": 0.07, "unit": "µM"},
      {"measurement": "IC50", "setting": "[4]", "result": 0.016, "unit": "µM"},
      {"measurement": "IC50", "setting": "[5]", "result": "> 10", "unit": "µM"},
      {"measurement": "IC50", "setting": "[6]", "result": "> 10", "unit": "µM"},
      {"measurement": "IC50", "setting": "[7]", "result": 5.3, "unit": "µM"},
      {"measurement": "IC50", "setting": "[8]", "result": "> 10", "unit": "µM"},
      {"measurement": "IC50", "setting": "[9]", "result": 3.6, "unit": "µM"},
      {"measurement": "IC50", "setting": "[10]", "result": 0.9, "unit": "µM"},
      {"measurement": "IC50", "setting": "[11]", "result": "> 10", "unit": "µM"},
      {"measurement": "IC50", "setting": "[12]", "result": "> 10", "unit": "µM"},
      {"measurement": "IC50", "setting": "[13]", "result": "> 10", "unit": "µM"},
      {"measurement": "IC50", "setting": "[14]", "result": 2.1, "unit": "µM"},
      {"measurement": "IC50", "setting": "[15]", "result": "> 10", "unit": "µM"},
      {"measurement": "IC50", "setting": "[16]", "result": 0.42, "unit": "µM"},
      {"measurement": "IC50", "setting": "[17]", "result": 4, "unit": "µM"},
      {"measurement": "IC50", "setting": "[18]", "result": "> 10", "unit": "µM"},
      {"measurement": "IC50", "setting": "[19]", "result": 0.26, "unit": "µM"},
      {"measurement": "IC50", "setting": "[20]", "result": 0.7, "unit": "µM"},
      {"measurement": "IC50", "setting": "[21]", "result": "> 30", "unit": "µM"},
      {"measurement": "IC50", "setting": "[22]", "result": 0.022, "unit": "µM"},
      {"measurement": "IC50", "setting": "[23]", "result": 0.021, "unit": "µM"}
    ]}
  ]
}
